# The list shows a part of the results, in another mix than the full data. Some of these compounds have results that are not shown, active ones among them. Activity calls are given as the source filed them. Cut-off read from the data, not from the text of the source: active = activation above about 19%; inactive = the rest.
# Amino acid sequences for entries named in this document (tags omitted). Residues count along the entry.
# UniProt P37231, 232-505 limits assumed: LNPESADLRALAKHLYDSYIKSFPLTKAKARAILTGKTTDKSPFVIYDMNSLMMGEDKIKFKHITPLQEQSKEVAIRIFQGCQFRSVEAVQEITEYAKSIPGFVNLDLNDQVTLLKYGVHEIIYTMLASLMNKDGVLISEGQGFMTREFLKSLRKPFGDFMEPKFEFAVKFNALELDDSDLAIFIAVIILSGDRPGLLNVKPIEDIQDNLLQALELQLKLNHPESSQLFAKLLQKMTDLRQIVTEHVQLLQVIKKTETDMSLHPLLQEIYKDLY
# UniProt Q15788, whole entry partner: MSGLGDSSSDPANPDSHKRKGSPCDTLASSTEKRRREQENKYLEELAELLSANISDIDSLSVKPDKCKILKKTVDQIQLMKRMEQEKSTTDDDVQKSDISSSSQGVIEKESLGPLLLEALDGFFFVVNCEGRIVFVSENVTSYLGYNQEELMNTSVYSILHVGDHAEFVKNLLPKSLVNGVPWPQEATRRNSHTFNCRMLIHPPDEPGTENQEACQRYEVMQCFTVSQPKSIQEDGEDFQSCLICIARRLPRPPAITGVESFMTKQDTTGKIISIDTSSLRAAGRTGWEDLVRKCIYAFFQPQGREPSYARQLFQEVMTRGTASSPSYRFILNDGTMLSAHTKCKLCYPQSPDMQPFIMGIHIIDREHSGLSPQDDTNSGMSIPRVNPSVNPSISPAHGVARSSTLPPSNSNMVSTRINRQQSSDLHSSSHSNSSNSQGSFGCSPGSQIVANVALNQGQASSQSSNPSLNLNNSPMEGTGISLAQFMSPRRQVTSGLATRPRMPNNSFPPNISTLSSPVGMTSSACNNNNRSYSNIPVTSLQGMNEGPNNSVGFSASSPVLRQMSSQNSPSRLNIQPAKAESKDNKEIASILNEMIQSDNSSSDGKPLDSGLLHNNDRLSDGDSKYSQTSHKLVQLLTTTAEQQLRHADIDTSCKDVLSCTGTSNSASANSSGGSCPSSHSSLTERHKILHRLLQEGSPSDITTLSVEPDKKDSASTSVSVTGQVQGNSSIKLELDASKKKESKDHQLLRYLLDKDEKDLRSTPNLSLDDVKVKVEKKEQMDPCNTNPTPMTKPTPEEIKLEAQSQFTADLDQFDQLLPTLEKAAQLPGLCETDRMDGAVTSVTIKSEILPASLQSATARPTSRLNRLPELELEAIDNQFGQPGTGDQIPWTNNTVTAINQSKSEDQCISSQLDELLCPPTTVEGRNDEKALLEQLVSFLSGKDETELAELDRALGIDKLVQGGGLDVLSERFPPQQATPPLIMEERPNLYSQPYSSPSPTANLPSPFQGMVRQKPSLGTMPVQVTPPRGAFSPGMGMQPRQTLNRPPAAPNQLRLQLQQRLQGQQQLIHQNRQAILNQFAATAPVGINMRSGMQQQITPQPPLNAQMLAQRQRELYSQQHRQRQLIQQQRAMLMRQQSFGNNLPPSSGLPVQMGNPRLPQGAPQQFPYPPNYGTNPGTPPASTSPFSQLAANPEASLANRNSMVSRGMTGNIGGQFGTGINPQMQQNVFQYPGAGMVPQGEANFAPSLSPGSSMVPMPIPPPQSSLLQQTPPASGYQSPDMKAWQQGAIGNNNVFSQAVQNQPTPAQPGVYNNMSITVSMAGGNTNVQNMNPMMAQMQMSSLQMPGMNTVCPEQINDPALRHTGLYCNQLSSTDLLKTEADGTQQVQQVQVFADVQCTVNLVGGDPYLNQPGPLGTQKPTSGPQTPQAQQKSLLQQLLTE
# Biological target: Peroxisome proliferator-activated receptor gamma (Homo sapiens) (UniProt P37231)
# Assay: enhancers of SRC-1 binding to PPARgamma – biochemical, primary screen (AID 631);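 note: 0% = DMSO and 100% = reference agonist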
# Details: PPARgamma-SRC-1 coactivator recruitment biochemical assay; at 8 µM; stronger effect = higher value
row,SMILES,activation
1,CN(C)c1cccc(C(=O)NCC2(N(C)C)CCCCC2)c1,inactive: 2%
2,O=C(OC1CN2CCC1CC2)C(CO)(c1ccccc1)c1ccccc1 (centres undefined),inactive: 0.1%
3,COc1cccc(C(=O)NCC2(N3CCCCC3)CCCCC2)c1,inactive: 4.6%
4,C=CCN1CCN(CCOC(=O)C(O)(c2ccccc2)c2ccccc2)CC1,inactive: 7.9%
5,CCN1CCCC(OC(=O)C2(O)c3ccccc3C=Cc3ccccc32)C1 (centres undefined),inactive: -6.8%
6,CN(C)C1CCCC1OC(=O)C(O)(c1ccccc1)c1ccccc1 (centres undefined),inactive: -0.9%
7,Cc1ccccc1C(=O)NCC1(N2CCCCC2)CCCCC1,inactive: 3.2%
8,CC(C)N1C(=O)CC2(CCN(CCOC(=O)C(O)(c3ccccc3)c3ccccc3)CC2)C1=O,inactive: -9.2%
9,O=C(NCC1(N2CCCCC2)CCCCC1)c1cc([N+](=O)[O-])ccc1Cl,inactive: 1.3%
